In PubChem BioAssay (NCI):
“And” between values parts separate entries of the source, which are not always exact repeats. Equal entries are not always repeated. The list shows a part of the results, in another mix than the full data. The source made the active and inactive calls. No stated cut-off is given here; in the data, active means growth inhibition above about 70%; inactive means the rest.

Experiments:
[1] = NCI Yeast Anticancer Drug Screen. Data for the rad50 strain (AID 155);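 further: 0% = growth of vehicle-only cultures of the same strain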; details: S. cerevisiae rad50 strain growth inhibition; at 50.0 µM; active compounds read high
[2] = NCI Yeast Anticancer Drug Screen. Data for the mec2-1 strain (AID 157); details: S. cerevisiae mec2-1 strain, at 50.0 µM, active compounds read high
[3] = NCI Yeast Anticancer Drug Screen. Data for the sgs1 mgt1 strain (AID 161);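 further: 0% = growth of cultures given vehicle only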; details: S. cerevisiae sgs1 mgt1 strain, at 50.0 µM, active compounds read high
[4] = NCI Yeast Anticancer Drug Screen. Data for the cln2 rad14 strain (AID 165);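 further: 0% = growth equal to vehicle treated cultures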; details: S. cerevisiae cln2 rad14 strain, at 50.0 µM, active compounds read high
[5] = NCI Yeast Anticancer Drug Screen. Data for the bub3 strain (AID 167); details: S. cerevisiae bub3 mutant strain, at 50.0 µM, active compounds read high
[6] = NCI Yeast Anticancer Drug Screen. Data for the mlh1 rad18 strain (AID 175); details: S. cerevisiae mlh1 rad18 strain growth inhibition; at 50.0 µM; active compounds read high

Measured: growth inhibition

O=C1CN(CCCl)CC(=O)N2Cc3ccccc3CN12
inactive: [1] -10.4% | [2] 13% | [3] -11.9% | [4] -3.25% | [5] -1.55% | [6] -15.7%

C=CS(=O)(=O)C=C
inactive: [1] 12.7% and 11.9% | [2] -1.55% and 25.9% | [3] 16.8% and -0.5% | [4] 10.8% and 49% | [5] 21.9% and 35.4% | [6] 3.7% and 28.1%

COc1ccc(S(=O)(=O)N(CCCl)CCCl)cc1
inactive: [1] -14.9% | [2] 4.9% | [3] -5% | [4] -30.4% | [5] 45.8% | [6] 5.55%

O=P1(N(CCCl)CCCl)NC(c2ccccc2)CCO1 (centres undefined)
inactive: [1] -15.4% and -16.8% | [2] -9.15% and 27.9% | [3] -18.4% and 4.15% | [4] -7.05% and 21.4% | [5] -6% and -11.1% | [6] -40% and -50.1%

O=C(NP(=O)(N1CCOCC1)N1CCOCC1)N1CCOCC1
inactive: [1] 26.6% | [2] -3.15% | [3] 10.8% | [4] 16.1% | [5] 15.4% | [6] -2.15%

Cn1c(COC(=O)N(CCCl)CCCl)cnc1S(C)=O (centres undefined)
inactive: [1] -17.9% | [2] -19.1% | [3] -23.1% | [4] -4.15% | [5] 14.5% | [6] 6.85%

CC(C)NCCN(C(=N)C(=N)N(CCNC(C)C)C(C)C)C(C)C
inactive: [1] 15.8% | [2] -1.6% | [3] 15.9% | [4] -4.8% | [5] 3.15% | [6] 42.2%

CCN(CC)[P+](Oc1ccccc1)(N(CC)CC)N(CC)CC
inactive: [1] 52% | [2] 30.9% | [3] 47.5% | [4] 21.1% | [5] 18.4% | [6] 42.2%

ClP(Cc1ccccc1)Cc1ccccc1
inactive: [1] -2.3% | [2] -8.3% | [3] -12.3% | [4] 1.65% | [5] -13.8% | [6] 15%

O=C(O)C(CSSCC(Nc1ccc([N+](=O)[O-])cc1[N+](=O)[O-])C(=O)O)Nc1ccc([N+](=O)[O-])cc1[N+](=O)[O-] (centres undefined)
inactive: [1] 30.6% | [2] 9.45% | [3] 43.5% | [4] 2.9% | [5] 2.8% | [6] 47.3%

O=[N+]([O-])c1ccc(N/N=C(/C=N/Nc2ccc([N+](=O)[O-])cc2[N+](=O)[O-])C(O)C(O)C(O)CO)c([N+](=O)[O-])c1 (centres undefined)
inactive: [1] 41.9% | [2] 21.2% | [3] 9.1% | [4] 1.6% | [5] 0.95% | [6] 28.6%

CCN(CCCl)Cc1ccc2ccccc2c1
inactive: [1] -0.35% | [2] -1.5% | [3] 36% | [4] -16.6% | [5] 1.55% | [6] 19.1%

O=C(c1cc([N+](=O)[O-])cc([N+](=O)[O-])c1)c1cc([N+](=O)[O-])c(O)c([N+](=O)[O-])c1
inactive: [1] 24.6% | [2] 19.9% | [3] 50.5% | [4] 29.9% | [5] 8.05% | [6] 33%

C/C(CC/C(C)=N\Nc1ccc([N+](=O)[O-])cc1[N+](=O)[O-])=N/Nc1ccc([N+](=O)[O-])cc1[N+](=O)[O-]
inactive: [1] -21.6% | [2] -3.75% | [3] -2.55% | [4] -5.45% | [5] -0.15% | [6] -27.1%

O=[N+]([O-])c1cc2nc(Cl)[nH]c2cc1[N+](=O)[O-]
inactive: [1] -7.35% | [2] -6.45% | [3] -1.05% | [4] -7.75% | [5] -16.4% | [6] 7.8%

Cc1cc(N(CCCl)CCCl)ccc1N
inactive: [1] -1.7% | [2] -11.7% | [3] -16.4% | [4] 14% | [5] -29.5% | [6] -14.2%

O=C(Nc1ccc([N+](=O)[O-])cc1[N+](=O)[O-])Nc1ccc([N+](=O)[O-])cc1[N+](=O)[O-]
active: [1] 91.9% | [2] 85.2% | [3] 94.8% | [6] 82.9%
inactive: [4] 43.4% | [5] 69.4%

CCCCSP1(SCCCC)=NP(Cl)(Cl)=NP(Cl)(Cl)=N1
inactive: [1] 4.3% | [2] -55.6% | [3] -6.85% | [4] -28.3% | [5] 3.85% | [6] -9.1%

O=C(Cn1nnc2ccccc21)N(CCCl)CCCl
inactive: [1] -12.2% | [2] -7.35% | [3] -0.1% | [4] 4.9% | [5] 0.15% | [6] 3.5%

Cc1cc(C)cc(OP(=O)(Cl)Oc2cc(C)cc(C)c2)c1
inactive: [1] -15.1% | [2] -42.5% | [3] -25.4% | [4] -7.55% | [5] -48% | [6] -10.9%

ClCCN(CCCl)c1ccc(/C=N/c2nccs2)cc1
inactive: [1] 49.2% | [2] 16.1% | [3] 31.5% | [4] 13.3% | [5] -13.6% | [6] 24.6%

CCCCCCCC/C=C\CCCCCCCC(=O)OCC(COP(=O)(Oc1ccccc1)N(CCCl)CCCl)OC(=O)CCCCCCC/C=C\CCCCCCCC (centres undefined)
inactive: [1] -2.95% | [2] 0.15% | [3] 12.1% | [4] -11.2% | [5] -9.45% | [6] 25.2%

CCCCOP(=S)(Cl)OCCCC
inactive: [1] -5.7% | [2] -0.4% | [3] -10.9% | [4] 34.5% | [5] 8% | [6] -12.3%

CCOC(=O)NC(=S)N(C)P(=S)(OCC)N(C)C(=S)NC(=O)OCC
inactive: [1] 4.7% | [2] -1.45% | [3] 24.9% | [4] -7.4% | [5] 13.3% | [6] -21.6%

O=c1oc(NCCCl)nc2ccccc12
inactive: [1] -1.05% | [2] 4.4% | [3] -3.65% | [4] -32.3% | [5] 0.7% | [6] -3.3%

Cc1ccc(NC(=S)NP(=O)(Oc2ccccc2)Oc2ccccc2)c(Br)c1
inactive: [1] 28.9% | [2] 11.1% | [3] 55.4% | [4] -7.05% | [5] 0.3% | [6] 50.3%

CC(C)(C)C1CNP(=O)(N(CCCl)CCCl)OC1 (centres undefined)
inactive: [1] -4.45% | [2] -9.55% | [3] -22.1% | [4] -14.2% | [5] 4.35% | [6] 15%

CC(C)(C)OP(OC(C)(C)C)OC(C)(C)C
inactive: [1] 2.6% | [2] -15.8% | [3] -5.75% | [4] -14.9% | [5] 9.6% | [6] 1.9%

CCOC(=O)NC(C)(CCC(C)(NC(=O)OCC)P(=O)(O)Nc1ncccn1)P(=O)(O)Nc1ncccn1 (centres undefined)
inactive: [1] 0.6% | [2] 6.65% | [3] 3.35% | [4] -6.45% | [5] 8.5% | [6] 0.45%
